Assay results published in paper PMC12624777.

Biological target: SNAP::rCaMKII WT (rat CaMKIIα with an N-terminal SNAP-tag) (rat (Rattus norvegicus)), P11275
Assay: SEC; analytical gel filtration, Superose 6 10/300 GL, 50 mM Tris pH 7.5, 150 mM NaCl, 1 mM TCEP, 0.4 ml/min; cleared HEK293T lysate injected without additional purification; detected by TMR-Star fluorescence; size estimated from Kav against MW standards
Conditions: remark: other sources report otherwise

stoichiometry N: 12
B1: SNAP::rCaMKII WT (rat CaMKIIα with an N-terminal SNAP-tag) (enzyme)
chain: MATITCTRFTEEYQLFEELGKGAFSVVRRCVKVLAGQEYAAKIINTKKLSARDHQKLEREARICRLLKHPNIVRLHDSISEEGHHYLIFDLVTGGELFEDIVAREYYSEADASHCIQQILEAVLHCHQMGVVHRDLKPENLLLASKLKGAAVKLADFGLAIEVEGEQQAWFGFAGTPGYLSPEVLRKDPYGKPVDLWACGVILYILLVGYPPFWDEDQHRLYQQIKAGAYDFPSPEWDTVTPEAKDLINKMLTINPSKRITAAEALKHPWISHRSTVASCMHRQETVDCLKK[skipping about 20 residues]GGKSGGNKKNDGVKESSESTNTTIEDEDTKVRKQEIIKVTEQLIEAISNGDFESYTKMCDPGMTAFEPEALGNLVEGLDFHRFYFENLWSRNSKPVHTTILNPHIHLMGDESACIAYIRITQYLDAGGIPRTAQSEETRVWHRRDGKWQIVHFHRSGAPSVLPH
modifications: here or on the partner: TMR-Star (fluorescent SNAP-ligand) on the SNAP-tag; TMR-Star (fluorescent SNAP-ligand) on the SNAP-tag
